The source of these data is PubChem BioAssay AID504706 (National Center for Advancing Translational Sciences (NCATS), 2011).

Molecules are shown by their SMILES. The entries are a selection whose mix differs from that of the whole data set. Records with an inconclusive call do not appear. Calls of active or inactive are those of the source. Calls follow the shape of the dose curve; as a rule, active = well fitted activation curve with a large enough effect; inconclusive = small, poorly fitted or top-dose-only effect; inactive = no such curve, though single readings can be large or run the other way.

The assay is described as follows: qHTS assay for re-activators of p53 using a Luc reporter. Also: % of control where 0% means no effect; nearly all actives have a fitted effect of over 45% in size. To be noted: H1299 p53-A138V BP100-luciferase reporter, luminescence, 24 h; at 92.2 µM (top of the series). The text has this: The p53 tumor suppressor plays a key role in suppression of tumorigenesis and in human carcinogenesis. It is frequently found inactivated in human cancers, mainly by point mutation. These point mutations are found in a wide variety of human cancers and a majority of them affect the DNA binding domain of the protein. The point mutations either alter native p53 conformation or abolish DNA contact. Additionally, cancer cells with p53 mutations are more resistant to chemo-radiation therapies. In order to find activators to reactivate this important protein, a cell-based screen for p53-dependent luciferase-reporter expression was developed. A p53-null H1299 lung cancer cell line was stably co-transfected with a temperature sensitive p53 mutant, p53-A138V, and a p53-responsive BP100-luciferase reporter. This cell model has previously been characterized in a gene chip profiling experiment for p53 activation. By lowering the culture temperature from 37 deg C (mutant p53 conformation) to 32 deg C (w.t. p53 conformation), a 30-60 fold increase in activation of luciferase activity is observed. At assay temperate, 37 deg C, basal reporter expression is very low and after the addition of detection reagent, a luminescent read-out is carried out. NIH Chemical Genomics Center [NCGC] NIH Molecular Libraries Probe Production Centers Network [MLPCN] MLPCN Grant: DA031088-01A1 Assay Provider (PI): Yi Sung, University of Michigan at Ann Arbor
5ul of 1000 cells per well are dispensed in all wells except column 4, into white solid-bottom TC-treated Kalypsys plates. The cells are kept in Opti-MEM and supplemented with 10% FBS and dispensed using a Multidrop (Thermo). Then using the Kalypsys pin-tool, 23nl of compounds are pinned. The compounds are starting concentration at 10mM, with 1:5 dilution, 4 points, and the control compound nocodazole is pinned in column 1 at 25mM, 1:3 dilution, in duplicate, 25mM nocodazole is pinned in column 2. Please note, all concentrations are working concentrations. 5ul of 1pM purified luciferase enzyme is dispensed using the Kalypsys dispenser in column 4. Plates are incubated for 24 hrs at 37 deg C, 5% CO2, and 95% humidity. Then 4ul of the detection reagent Amplite (ABD Bioquest) is added using the Kalypsys dispenser. Plates are incubated for 10 min at ambient room temperature and are then read on the ViewLux (Perkin Elmer) using a clear filter for a luminescent read-out.
As to `CCN(CC)CCCOC(=O)C(O)(c1ccccc1)c1ccccc1`, the activity change, positive = activation was inactive: 6.69%.
As for `COc1ccccc1OP(C)(=O)Nc1ccc(C)cc1` (stereo unspecified), the figure is inactive: -24.5%; as for `Cc1ccc(NP(C)(=O)Oc2ccccc2)c(C)c1` (stereo unspecified), inactive: -5.96%.
With `CCOC(=O)c1ccc(NP(C)(=O)Oc2ccccc2)cc1` (stereo unspecified), the activity change, positive = activation was inactive: 1.13%.
Regarding `Cc1cc(C)cc(OP(C)(N)=O)c1` (stereo unspecified), the activity change, positive = activation was inactive: -3.45%.
Take `COc1ccccc1OP(C)(=O)Nc1cc(Cl)ccc1C` (stereo unspecified): the activity change, positive = activation was inactive: -3.39%.
With `COc1ccc(OP(C)(=O)Nc2cccc(F)c2)cc1` (stereo unspecified), the activity change, positive = activation was inactive: -0.781%.
Take `O=[N+]([O-])c1cc([N+](=O)[O-])c(Nc2cccnc2)c([N+](=O)[O-])c1`: the activity change, positive = activation is inactive: -19.2%.
Under `O=[N+]([O-])c1ccc2c(c1)C=Nc1ccccc1O2` stands inactive: 4.94%; under `CC(C)(C)c1ccc(OP(C)(=O)Nc2ccc(SC(F)(F)F)cc2)cc1` (stereo unspecified), inactive: -2.67%; under `Cc1cccc(C)c1OP(C)(N)=O` (stereo unspecified), inactive: -1.14%.
Under `CP(=O)(Nc1ccccc1Br)Oc1ccccc1` (stereo unspecified) stands inactive: -4.87%; under `COc1ccccc1OP(C)(=O)Nc1ccccc1` (stereo unspecified), inactive: 2.21%.
For the compound `CCOC(=O)c1ccc(NP(C)(=O)Oc2ccc(OC)cc2)cc1` (stereo unspecified), the activity change, positive = activation was inactive: -19.9%.
As for `CCOP(C)(=S)SCC(=O)NC(C)C(=O)O` (stereo unspecified), the figure is inactive: 3%.
Under `Cc1cccc(C)c1OP(C)(=O)Nc1ccc(SC(F)(F)F)cc1` (stereo unspecified) stands inactive: -1.63%.
Under `CP(=O)(Nc1ccc(SC(F)(F)F)cc1)Oc1ccc(Cl)cc1` (stereo unspecified) stands inactive: -1.54%; under `CP(=O)(Oc1ccccc1)OC(c1ccccc1)C(F)(F)F` (stereo unspecified), inactive: 2.41%; under `CP(=O)(NC(=O)Nc1ccccc1)Oc1ccccc1` (stereo unspecified), inactive: -2.02%.
As for `CCc1ccc(OP(C)(=O)N2CCN(c3ccc([N+](=O)[O-])cc3)CC2)cc1` (stereo unspecified), the activity change, positive = activation was inactive: -2.31%.
As for `Cc1cc(C)cc(OP(C)(=O)Nc2ccc(SC(F)(F)F)cc2)c1` (stereo unspecified), the figure is inactive: 4.4%.
